In ChEMBL document CHEMBL1121956, “Potential antitumor agents. 37. Organophosphorus derivatives of 9-anilinoacridine” (1982):

What follows are molecules tested on Nucleic Acid (assay: […] association constant for DNA binding to poly (dA.dT)).
Assay type: nucleic-acid assay

| Compound | Log K |
| --- | --- |
| COC(=O)Nc1ccc(Nc2c3ccccc3nc3ccccc23)cc1 | 6.36 |
| CNC(=O)Nc1ccc(Nc2c3ccccc3nc3ccccc23)cc1 | 6.24 |
| CC(=O)Nc1ccc(Nc2c3ccccc3nc3ccccc23)cc1 | 6.3 |
| CS(=O)(=O)Nc1cccc(Nc2c3ccccc3nc3ccccc23)c1 | 5.73 |
